Tested on: THP-1
Experiment: Host cell toxicity: THP-1 host nuclei counts in the image-based assay
Conditions: ratio between parasite GI50 and THP-1 GI50

`Oc1c(Cl)cc(Cl)c(Cl)c1Cc1c(O)c(Cl)cc(Cl)c1Cl` [Hexachlorophene] was tested, and the Selectivity was 3.62.

Reference: publication PMC3139667, “A Screen against Leishmania Intracellular Amastigotes: Comparison to a Promastigote Screen and Identification of a Host Cell-Specific Hit” (PLoS Neglected Tropical Diseases, 2011)
